Bioassay records from PubChem BioAssay.
E-selectin induc: E-selectin induction in HUVECs, primary screen, imaging, HUVEC, immunofluorescence imaging, single point. P16581. 260,000 tested, 0.37% active. normalized: neutral wells 0, TNF-alpha wells 100. activation, % at 7.58 µM;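 active means mean E-selectin-positive cell signal at least 10% of the positive control, reached in at least 60% of replicates, without over 20% cell loss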
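Test system – human umbilical vein endothelial cells (HUVEC), E-selectin induction · Input – 3,000 HUVEC seeded per well · Buffer or medium – EGM-2, gelatin · Compound dosing – single-point compound dose · Detection – immunofluorescence imaging · Measure – percent E-selectin-positive cells · Controls – TNF-alpha high, DMSO low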
RAD54 branch: inhibitors of human RAD54 branch migration, primary screen, biochemical, fluorescence, single point; RAD54 Holliday junction branch migration, FAM/BHQ fluorescence; inhibition, % at 10.4 µM; 360,000 tested, 0.14% active;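 active means mean normalized replicate activity at least 40 and at least half of replicates scoring 40 or more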;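 further: 0% = median of neutral control wells and 100% = median of positive control wells; inhibitors cause a drop in the FAM fluorescence signal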
RAD52 inh: RAD52 DNA annealing inhibitors, primary screen, biochemical, FRET, single point, set 2 | DNA repair protein RAD52 homolog (Homo sapiens), P43351 | recombinant RAD52 DNA annealing, FRET fluorescence | inhibition, % at 18.7 µM | 360,000 tested, 0.46% active | AID 651710, 2012;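 active means every replicate showing at least 50% inhibition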
XiGFP reactiv: activators of inactive X chromosome reactivation, primary screen, imaging, XiGFP fibroblasts, GFP high-content imaging, set 2; XiGFP mouse fibroblasts, % GFP-positive cells imaging, 3 d; cells co-treated with 5-aza-dC sensitizer; scaled so ellipticine positive control = 100%; activation, % at 7.58 µM; AID 743238, 2013; 360,000 tested, 0.055% active;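 active means mean normalized replicate activation at least 10% and every replicate at or above 10%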;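 further: 0% = median of on-plate neutral control wells and 100% = ellipticine 6 µM median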
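System: XiGFP fibroblasts, SV40-immortalized. Medium: DMEM plus 5-aza-dC sensitizer. Doses: single point. Timing: 3 d treatment, 15 min room-temperature fixation. Control set: ellipticine 6 µM.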
Yeast UUG start: modulators of start codon recognition fidelity in yeast; S. cerevisiae UUG-firefly luciferase reporter, luminescence/redox ratio; activity score, % at 18.7 µM; hit rate 0.13% among 350,000; AID 602363;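 active = replicate mean at a twofold rise or more, about +100% in these data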;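 note: firefly luciferase made from a UUG start codon reports start codon fidelity; reporter light over untreated wells divided by growth signal over untreated wells; some hits fall short of that in this replicate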
* marks the source's active call; other numbers are inactive results; · = not tested or not shown. Sampled rows, rich in hits. Any-hit rate of the full collection: about 0.73%.

Sequences of proteins named here, by UniProt entry; tags and fusion partners are left off.
DNA repair protein RAD52 homolog (Homo sapiens), P43351, UniProt P43351, whole entry, looked up: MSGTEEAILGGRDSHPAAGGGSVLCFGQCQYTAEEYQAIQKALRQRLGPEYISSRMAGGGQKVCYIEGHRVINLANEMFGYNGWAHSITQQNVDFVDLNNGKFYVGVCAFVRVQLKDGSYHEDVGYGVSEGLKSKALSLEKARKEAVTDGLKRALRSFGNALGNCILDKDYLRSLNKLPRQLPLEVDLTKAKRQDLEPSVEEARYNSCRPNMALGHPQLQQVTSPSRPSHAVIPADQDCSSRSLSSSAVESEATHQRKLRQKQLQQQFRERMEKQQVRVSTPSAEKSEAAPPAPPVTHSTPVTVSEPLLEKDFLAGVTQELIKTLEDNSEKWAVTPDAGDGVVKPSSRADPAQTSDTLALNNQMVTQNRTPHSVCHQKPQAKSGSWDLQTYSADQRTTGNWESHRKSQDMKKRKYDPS

SMILES	E-selectin induc	RAD54 branch	RAD52 inh	XiGFP reactiv	Yeast UUG start
CCCN(C)C[C@H]1OCCCC[C@H](C)Oc2ccc(NC(=O)Nc3ccc(F)cc3)cc2C(=O)N([C@@H](C)CO)C[C@H]1C	0	·	·	0	·
C[C@@H]1CN([C@@H](C)CO)C(=O)c2cc(NC(=O)Nc3ccc(F)cc3)ccc2O[C@@H](C)CCCCO[C@H]1CN(C)C(=O)CCCN(C)C	0	9	51*	0	37
C[C@H](CO)N1C[C@H](C)[C@H](CN(C)C(=O)CCCN(C)C)OCCCC[C@H](C)Oc2ccc(NC(=O)Nc3ccc(F)cc3)cc2C1=O	1	5	24	0	7
C[C@@H]1CN([C@H](C)CO)C(=O)c2cc(NC(=O)C3CC3)ccc2O[C@H]1CN(C)S(=O)(=O)c1ccc(F)cc1	0	1	-4	0	8
COc1ccc(CN(C)C[C@H]2OCCCC[C@@H](C)Oc3ccc(NS(=O)(=O)c4ccc(Cl)cc4)cc3C(=O)N([C@H](C)CO)C[C@H]2C)cc1	·	-12	55*	0	17
COc1ccc(CN(C)C[C@H]2OCCCC[C@@H](C)Oc3ccc(NS(=O)(=O)c4ccc(Cl)cc4)cc3C(=O)N([C@H](C)CO)C[C@@H]2C)cc1	·	-5	50	0	-4
COc1ccc(CN(C)C[C@H]2OCCCC[C@H](C)Oc3ccc(NS(=O)(=O)c4ccc(Cl)cc4)cc3C(=O)N([C@H](C)CO)C[C@@H]2C)cc1	·	5	49	0	14
COc1ccc(CN(C)C[C@@H]2OCCCC[C@H](C)Oc3ccc(NS(=O)(=O)c4ccc(Cl)cc4)cc3C(=O)N([C@H](C)CO)C[C@H]2C)cc1	·	2	57*	0	2
COc1ccc(CN(C)C[C@H]2OCCCC[C@@H](C)Oc3ccc(NS(=O)(=O)c4ccc(Cl)cc4)cc3C(=O)N([C@@H](C)CO)C[C@H]2C)cc1	·	-7	55*	0	0
COc1ccc(S(=O)(=O)Nc2ccc3c(c2)C(=O)N([C@@H](C)CO)C[C@H](C)[C@@H](CN(C)Cc2ccc(Cl)c(Cl)c2)O3)cc1	80*	3	-1	0	10
O=C(Nc1ccc2c(c1)OCO2)N[C@H]1CC[C@@H](CCNC(=O)C2CC2)O[C@H]1CO	0	9	-6	0	-2
O=C(Nc1ccc(F)cc1)N[C@@H]1CC[C@H](CC(=O)N2CCOCC2)O[C@@H]1CO	0	-3	-5	0	-14
C[C@@H]1CN([C@H](C)CO)C(=O)Cc2cc(NC(=O)CCCN(C)C)ccc2O[C@H]1CN(C)C	1	-29	-7	-1	4
C[C@H](CO)N1C[C@H](C)[C@H](CN(C)C)Oc2ccc(NC(=O)Nc3ccccc3)cc2CC1=O	273*	4	11	0	6
C[C@@H]1CN([C@@H](C)CO)C(=O)Cc2cc(NC(=O)CCC(F)(F)F)ccc2O[C@H]1CN(C)S(C)(=O)=O	0	-10	3	0	-9
C[C@@H]1CN([C@H](C)CO)C(=O)Cc2cc(NC(=O)CCC(F)(F)F)ccc2O[C@@H]1CN(C)S(C)(=O)=O	39*	·	·	0	·
C[C@@H]1CN([C@@H](C)CO)C(=O)Cc2cc(NC(=O)Nc3ccccc3)ccc2O[C@H]1CN(C)C	-5	3	-7	0	8
C[C@H]1CN([C@@H](C)CO)C(=O)Cc2cc(NC(=O)Nc3ccccc3)ccc2O[C@H]1CN(C)C	42*	-4	-25	0	-2
C[C@H](CO)N1C[C@H](C)[C@@H](CN(C)C)Oc2ccc(NC(=O)CCCN(C)C)cc2CC1=O	204*	0	11	-1	1
C[C@@H]1CN([C@H](C)CO)C(=O)Cc2cc(NC(=O)NC3CCCCC3)ccc2O[C@H]1CN(C)Cc1ccccc1	0	-1	-5	-1	1
O=C1O[C@H](c2ccccc2)[C@H](c2ccccc2)N2[C@H]1[C@@H](C(=O)NC[C@H](O)c1ccccc1)[C@]1(C(=O)Nc3ccc(C#CCCO)cc31)[C@H]2c1ccc(OCCO)cc1	·	-4	21	·	-3
Cc1cccc(-c2cccc3[nH]c4c(c23)CCN2C(=O)[C@H]3[C@H](C)ON(C)[C@H]3C[C@@H]42)c1	0	·	-101	48*	·
COc1ccc(NC(=O)Nc2ccc3c(c2)CC(=O)N([C@H](C)CO)C[C@H](C)[C@@H](CN(C)Cc2ccccc2)O3)cc1	0	8	-9	0	-2
C[C@H](CO)N1C[C@H](C)[C@H](CN(C)S(=O)(=O)c2ccccc2)Oc2c(cccc2N(C)C)C1=O	-3	2	-9	0	-17
COc1ccc(NC(=O)c2cc(S(=O)(=O)N3CCCCC3)c[nH]2)cc1	111*	-4	-30	0	7

More compounds.
SMILES	E-selectin induc	RAD54 branch	RAD52 inh	XiGFP reactiv	Yeast UUG start
Cc1ccc(SCc2cc(=O)n3[nH]c(C)nc3n2)cc1	·	4	·	·	-9
Cc1ccc(SCc2cc(=O)n(C)[nH]2)cc1	82*	·	-6	0	·
CCOC(=O)c1cccc(NC(=O)Nc2ccc3c(c2)C(=O)OC3)c1	61*	4	-15	0	-9
Cc1c(N(C)C(=O)COc2ccc3ccccc3c2)c(=O)n(-c2ccccc2)n1C	42*	-13	-15	1	-12
CN(C)CC(=O)N[C@@H]1CC[C@H](CCNS(=O)(=O)c2ccccc2)O[C@@H]1CO	0	2	1	0	-3
c1ccc(-c2ccccc2OCCOCCN2CCOCC2)cc1	0	8	-3	0	-1
c1ccc(-c2ccccc2OCCOCCN2CCNCC2)cc1	39*	·	8	0	·
COc1ccc(NC(=O)N2CCCCN3[C@H](CO)[C@H](c4ccc(-c5ccccc5F)cc4)[C@H]3C2)cc1	6	22	57*	0	-1
COc1ccc(NC(=O)N2CCCCN3[C@H](C2)[C@@H](c2ccc(-c4ccccc4F)cc2)[C@@H]3CO)cc1	1	8	36	0	3
O=C(Nc1ccccc1F)N1CCCCN2[C@H](CO)[C@@H](c3ccc(C4=CCCCC4)cc3)[C@H]2C1	·	-11	56*	·	3
COc1ccc(NC(=O)N2CCCCN3[C@H](CO)[C@@H](c4ccc(-c5ccccc5F)cc4)[C@H]3C2)cc1	0	5	52*	0	3
COc1ccc(NC(=O)N2CCCCN3[C@H](CO)[C@@H](c4ccc(-c5ccccc5F)cc4)[C@@H]3C2)cc1	0	7	56*	0	4
O=C(Nc1ccccc1F)N1CCCCN2[C@H](CO)[C@@H](c3ccc(C4=CCCC4)cc3)[C@@H]2C1	0	-15	·	0	0

Compounds above that contain an NH in an aromatic ring, in the order listed:
SMILES	E-selectin induc	RAD54 branch	RAD52 inh	XiGFP reactiv	Yeast UUG start
Cc1cccc(-c2cccc3[nH]c4c(c23)CCN2C(=O)[C@H]3[C@H](C)ON(C)[C@H]3C[C@@H]42)c1	0	·	-101	48*	·
COc1ccc(NC(=O)c2cc(S(=O)(=O)N3CCCCC3)c[nH]2)cc1	111*	-4	-30	0	7
Cc1ccc(SCc2cc(=O)n3[nH]c(C)nc3n2)cc1	·	4	·	·	-9
Cc1ccc(SCc2cc(=O)n(C)[nH]2)cc1	82*	·	-6	0	·
